Sequences of proteins named here, by UniProt entry; tags and fusion partners are left off.
UniProt P11362, whole entry: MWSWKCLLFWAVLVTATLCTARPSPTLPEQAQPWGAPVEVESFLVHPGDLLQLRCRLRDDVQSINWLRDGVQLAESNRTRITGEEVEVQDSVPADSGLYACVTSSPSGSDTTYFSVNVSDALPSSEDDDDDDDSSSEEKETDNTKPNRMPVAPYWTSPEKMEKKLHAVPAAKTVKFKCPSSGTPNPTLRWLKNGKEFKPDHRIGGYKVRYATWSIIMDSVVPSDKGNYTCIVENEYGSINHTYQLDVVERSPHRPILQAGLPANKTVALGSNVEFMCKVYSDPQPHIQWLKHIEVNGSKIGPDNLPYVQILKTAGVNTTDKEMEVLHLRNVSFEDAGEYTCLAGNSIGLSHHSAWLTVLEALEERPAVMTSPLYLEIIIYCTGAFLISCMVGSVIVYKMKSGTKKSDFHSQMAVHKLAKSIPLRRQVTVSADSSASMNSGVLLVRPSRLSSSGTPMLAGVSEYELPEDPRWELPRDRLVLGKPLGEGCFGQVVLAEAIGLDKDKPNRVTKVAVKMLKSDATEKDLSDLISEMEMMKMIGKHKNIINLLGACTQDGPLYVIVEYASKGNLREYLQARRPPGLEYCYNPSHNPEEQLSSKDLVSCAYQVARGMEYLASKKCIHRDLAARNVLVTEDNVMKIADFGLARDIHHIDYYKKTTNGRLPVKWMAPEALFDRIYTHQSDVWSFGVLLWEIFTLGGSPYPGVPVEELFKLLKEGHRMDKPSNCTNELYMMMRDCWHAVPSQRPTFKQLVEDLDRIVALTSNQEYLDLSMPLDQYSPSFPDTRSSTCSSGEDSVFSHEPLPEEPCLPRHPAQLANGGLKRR
UniProt P17948, whole entry: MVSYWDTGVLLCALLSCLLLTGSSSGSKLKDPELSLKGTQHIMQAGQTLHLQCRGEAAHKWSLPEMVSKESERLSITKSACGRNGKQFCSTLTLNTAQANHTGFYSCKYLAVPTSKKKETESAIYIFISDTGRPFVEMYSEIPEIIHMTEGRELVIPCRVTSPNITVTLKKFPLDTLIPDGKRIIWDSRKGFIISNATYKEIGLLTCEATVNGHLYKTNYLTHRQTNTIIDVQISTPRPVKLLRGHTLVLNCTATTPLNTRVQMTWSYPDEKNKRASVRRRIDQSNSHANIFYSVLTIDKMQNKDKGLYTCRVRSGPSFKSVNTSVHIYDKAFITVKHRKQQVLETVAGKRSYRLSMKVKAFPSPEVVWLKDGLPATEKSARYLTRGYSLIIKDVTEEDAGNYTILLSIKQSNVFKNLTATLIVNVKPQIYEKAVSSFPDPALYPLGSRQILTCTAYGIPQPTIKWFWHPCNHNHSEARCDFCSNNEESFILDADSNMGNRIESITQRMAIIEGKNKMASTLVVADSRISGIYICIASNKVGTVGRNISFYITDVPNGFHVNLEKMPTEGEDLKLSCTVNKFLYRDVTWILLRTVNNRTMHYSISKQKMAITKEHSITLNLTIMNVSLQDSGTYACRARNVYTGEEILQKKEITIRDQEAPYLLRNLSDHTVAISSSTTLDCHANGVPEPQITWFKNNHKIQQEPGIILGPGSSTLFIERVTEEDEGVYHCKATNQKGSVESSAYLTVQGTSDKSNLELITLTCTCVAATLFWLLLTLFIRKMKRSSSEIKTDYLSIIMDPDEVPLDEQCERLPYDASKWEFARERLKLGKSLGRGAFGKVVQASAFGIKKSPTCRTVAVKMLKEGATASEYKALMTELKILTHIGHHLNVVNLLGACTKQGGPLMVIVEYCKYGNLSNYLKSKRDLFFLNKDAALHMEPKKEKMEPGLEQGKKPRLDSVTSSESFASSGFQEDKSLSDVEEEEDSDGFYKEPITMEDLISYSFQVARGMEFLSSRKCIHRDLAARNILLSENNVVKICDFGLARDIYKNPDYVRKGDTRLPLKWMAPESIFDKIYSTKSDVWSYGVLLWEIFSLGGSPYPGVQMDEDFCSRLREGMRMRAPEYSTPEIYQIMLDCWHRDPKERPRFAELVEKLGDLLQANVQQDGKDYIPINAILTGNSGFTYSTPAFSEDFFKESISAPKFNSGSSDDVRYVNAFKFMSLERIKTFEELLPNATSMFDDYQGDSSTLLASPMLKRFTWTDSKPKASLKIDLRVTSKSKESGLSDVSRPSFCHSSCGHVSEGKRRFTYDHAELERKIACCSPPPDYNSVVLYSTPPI

According to ChEMBL document CHEMBL1138908, “Design and structure-activity relationship of 3-benzimidazol-2-yl-1H-indazoles as inhibitors of receptor tyrosine kinases” (Bioorg Med Chem Lett, 2006):

Key:
[1] = biological target: Fibroblast growth factor receptor 1 (Homo sapiens, UniProt P11362); assay: Inhibition of FGFR1
[2] = biological target: Vascular endothelial growth factor receptor 1 (Homo sapiens, UniProt P17948); assay: Inhibition of VEGFR1

SMILES	IC50 [1] [nM]	IC50 [2] [nM]
FC(F)(F)c1ccc2c(-c3nc4ccc(N5CCC(N6CCCCC6)CC5)cc4[nH]3)n[nH]c2c1	2	2
CC(C)(C)NC(=O)Nc1ccc2[nH]nc(-c3nc4ccc(N5CCC(N6CCCCC6)CC5)cc4[nH]3)c2c1	1	
